Values quoted from earlier work, collected in patent US8048872B2, “Treatment of hyperproliferative diseases with vinca alkaloid N-oxide and analogs” (Stat of Oregon Acting by and Through The Oregon State Board …, priority 2006, dated 2011).

Settings: cited from earlier work

Substance: Interferon alfa-2a
- Cardiac Toxicity (Grade III-IV): Cardiac Toxicity 5%
- Fever (Grade III-IV): Fever 5%
- Neurologic Toxicity (Grade III-IV): Neurologic Toxicity 3%
- Pulmonary Symptoms (Grade III-IV): 3%
- Weight Loss (Grade III-IV): Weight Loss 6%
- Altered Mood (Grade III): (Grade III) 3%
- Gastrointestinal (Grade III): (Grade III) 13%
- Leukopenia (Grade III): Grade III 7%
- Neutropenia (Grade III): Grade III 3%
- Leukopenia (grade not given): Leukopenia 0.7%

Substance: Interleukin-2
- Acidosis (Grade III-IV): Acidosis 6%
- Anemia Grade III-IV (Grade III-IV): 18%
- Asthenia (Grade III-IV): Asthenia 4%
- Cardiac Toxicity (Grade III-IV): Cardiac Toxicity 9%
- Diarrhea (Grade III-IV): Diarrhea 22%
- Dyspnea (Grade III-IV): Dyspnea 17%
- Elevated BUN/Creatinine (Grade III-IV): Creatinine 14%
- Fever and/or Chills (Grade III-IV): Fever and/or Chills 24%
- Gastrointestinal Bleeding (Grade III-IV): Bleeding 4%
- Hyperbilirubinemia (Grade III-IV): Hyperbilirubinemia 21%
- Hypotension (Grade III-IV): Hypotension 74%
- Increased AST/ALT (Grade III-IV): Increased AST/ALT 10%
- Increased Alkaline Phosphatase (Grade III-IV): Phosphatase 8%
- Mental Status Changes (Grade III-IV): Changes 28%
- Nausea/Vomiting (Grade III-IV): Nausea/Vomiting 25%
- Oliguria/Anuria (Grade III-IV): Oliguria/Anuria 46%
- Pruritus (Grade III-IV): Pruritus 4%
- Sepsis (Grade III-IV): Sepsis 6%
- Stomatitis (Grade III-IV): Stomatitis 4%
- Thrombocytopenia (Grade III-IV): Thrombocytopenia 21%
- Leukopenia/Neutropenia Toxicity (grade not given): None reported

Read-outs that look alike come from different tables or passages of the source.
